Reference: ChEMBL document CHEMBL1126061, “Cyclic RGD peptide analogues as antiplatelet antithrombotics” (J Med Chem, 1992)

Protein sequences, listed by entry. Tags and fused reporters are not part of them. Residues count along the entry.
UniProt P05106, 27-788 limits assumed: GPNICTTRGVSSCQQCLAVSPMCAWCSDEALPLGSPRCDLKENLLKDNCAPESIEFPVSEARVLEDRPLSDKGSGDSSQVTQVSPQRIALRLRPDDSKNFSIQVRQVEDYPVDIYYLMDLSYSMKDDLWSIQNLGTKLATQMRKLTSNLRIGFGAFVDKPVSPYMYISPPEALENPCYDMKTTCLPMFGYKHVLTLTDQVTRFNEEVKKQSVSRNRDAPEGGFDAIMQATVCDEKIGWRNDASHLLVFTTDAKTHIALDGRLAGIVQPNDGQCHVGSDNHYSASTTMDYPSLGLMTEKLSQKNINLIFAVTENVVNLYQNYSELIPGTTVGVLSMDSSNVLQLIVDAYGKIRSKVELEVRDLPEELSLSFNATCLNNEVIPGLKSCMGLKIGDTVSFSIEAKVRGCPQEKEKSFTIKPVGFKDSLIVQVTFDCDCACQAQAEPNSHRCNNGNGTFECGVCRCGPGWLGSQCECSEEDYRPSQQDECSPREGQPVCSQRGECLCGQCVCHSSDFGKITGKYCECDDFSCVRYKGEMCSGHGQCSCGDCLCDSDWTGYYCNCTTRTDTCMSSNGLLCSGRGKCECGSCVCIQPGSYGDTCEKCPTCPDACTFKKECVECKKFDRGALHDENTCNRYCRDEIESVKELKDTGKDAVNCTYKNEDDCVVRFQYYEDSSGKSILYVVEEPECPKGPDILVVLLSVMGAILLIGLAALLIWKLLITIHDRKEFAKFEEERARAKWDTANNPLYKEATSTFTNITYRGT
UniProt P08514, 32-887 limits assumed: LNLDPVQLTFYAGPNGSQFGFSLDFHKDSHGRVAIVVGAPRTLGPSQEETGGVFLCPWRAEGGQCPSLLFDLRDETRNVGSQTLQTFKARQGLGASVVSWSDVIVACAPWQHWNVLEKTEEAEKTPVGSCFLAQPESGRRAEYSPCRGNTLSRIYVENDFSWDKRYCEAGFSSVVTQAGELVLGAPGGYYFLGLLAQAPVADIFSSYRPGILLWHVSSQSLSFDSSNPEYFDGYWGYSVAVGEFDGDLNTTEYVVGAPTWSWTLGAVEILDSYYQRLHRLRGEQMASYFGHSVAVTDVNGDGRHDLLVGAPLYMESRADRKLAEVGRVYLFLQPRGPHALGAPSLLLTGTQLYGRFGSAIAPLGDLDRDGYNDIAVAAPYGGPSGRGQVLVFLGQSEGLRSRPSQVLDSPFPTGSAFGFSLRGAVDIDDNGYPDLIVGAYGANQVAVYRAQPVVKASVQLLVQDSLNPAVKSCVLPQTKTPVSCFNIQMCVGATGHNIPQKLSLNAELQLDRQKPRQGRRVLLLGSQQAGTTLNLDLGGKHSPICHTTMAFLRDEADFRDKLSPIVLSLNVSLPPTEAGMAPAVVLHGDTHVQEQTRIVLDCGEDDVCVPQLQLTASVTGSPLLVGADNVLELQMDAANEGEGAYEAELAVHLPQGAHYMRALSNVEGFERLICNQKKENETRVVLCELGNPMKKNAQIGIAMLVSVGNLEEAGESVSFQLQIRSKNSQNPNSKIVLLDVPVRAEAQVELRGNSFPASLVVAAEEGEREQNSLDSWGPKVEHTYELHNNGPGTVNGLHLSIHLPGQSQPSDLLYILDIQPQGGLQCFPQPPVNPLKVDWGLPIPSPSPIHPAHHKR
UniProt P08514, 891-1039 limits assumed: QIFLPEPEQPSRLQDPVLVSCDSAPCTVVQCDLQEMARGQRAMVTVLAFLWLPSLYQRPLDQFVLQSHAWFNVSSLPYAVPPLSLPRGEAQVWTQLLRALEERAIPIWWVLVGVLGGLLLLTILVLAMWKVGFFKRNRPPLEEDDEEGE

Molecular target: Integrin alpha-IIb/beta-3 (Homo sapiens, UniProt P05106+P08514)
Experiment: The compound was tested for the inhibition of fibrinogen receptor
Type: protein-complex assay
Outline: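 Solid-phase ELISA: human fibrinogen (10 µg/mL) coated, BSA-blocked; samples plus purified human platelet GPIIbIIIa (40 µg/mL) incubated 1 h at room temperature. Bound receptor detected with anti-GPIIbIIIa antibody AP3 (1 µg/mL, 1 h), then goat anti-mouse HRP (1 h); OPD/H2O2 at pH 5, stopped with H2SO4, absorbance 492-405 nm. IC50 from four-parameter fit; n ≥ 3.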

SMILES | IC50
NCC(=O)N[C@@H](CCCN=C(N)N)C(=O)NCC(=O)N[C@@H](CC(=O)O)C(=O)N[C@@H](Cc1ccccc1)C(=O)O | 0.083 µM
N=C(N)NCCC[C@H](NC(=O)CN)C(=O)NCC(=O)N[C@@H](CC(=O)O)C(=O)N[C@@H](CO)C(=O)O | 0.133 µM
